Apparent affinities of Ab-14 variants for a coronavirus HR2 peptide

From the AlphaSeq antibody data of Engelhart et al. 2022 (doi:10.1038/s41597-022-01779-4), copy in the FLAb collection.

Binding partner: SARS-CoV-2 spike HR2 peptide, sequence PDVDLGDISGINAS.

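The starting antibody came from a phage panning campaign against this peptide. In library AAYL50, one, two or three CDR residues were substituted; doubles and triples were drawn at random. Affinity was read by AlphaSeq, a pooled yeast mating assay with surface-displayed partners. Pairs that bind mate more often; barcode pairs of the diploids are counted by sequencing. Scores were corrected for input abundance and mapped to Kd with protein pairs of known affinity run in the same pool. There are three technical replicates.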

The variants keep the heavy chain, the linker and the frameworks of Ab-14 (scFv order VH, three GGGGS repeats, VL).
VH: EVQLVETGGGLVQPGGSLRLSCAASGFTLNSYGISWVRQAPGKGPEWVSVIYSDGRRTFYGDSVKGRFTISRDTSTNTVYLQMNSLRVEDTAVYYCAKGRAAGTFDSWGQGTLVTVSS
VL: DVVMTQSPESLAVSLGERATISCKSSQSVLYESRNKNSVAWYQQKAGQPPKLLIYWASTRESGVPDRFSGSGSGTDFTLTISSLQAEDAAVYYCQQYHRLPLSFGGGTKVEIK

Variants are written as CDR1, CDR2 and CDR3 of the light chain (limits as in the source). Parent: KSSQSVLYESRNKNSVA, WASTRES, QQYHRLPLS.
All variants listed here change E32 of the VL, counted from its first residue.
The read-out is the apparent dissociation constant on a log10 scale (nM): the lower, the stronger.
Averages over replicates are reported, and they cover detected replicates only.
"n.d." marks a missing value. The strain was present, yet no cells mated with the target were sequenced in that replicate, which points to weak or no binding.
Entries are sorted by rising average, undetected variants last.
Three control strains display no target. For library AAYL50, 18% of the pairings with them gave a signal, with a median of 4.19 and one signal in twenty below 2.99, so weak values seen in few replicates may be background.

| CDR-L1 | CDR-L2 | CDR-L3 | log10 Kd (nM) by replicate | mean log10 Kd (nM) |
|---|---|---|---|---|
| KSSQSVLYYSRNKNSVA | NASTRES | QQYHRLPLD | 0.06 0.33 0.17 | 0.19 |
| KSSQSVLYDSRNKNSVA | WASIRES | QQYHRLPLK | 0.49 0.65 0.59 | 0.58 |
| KQSQSVLELSRNKNSVA | WASTRES | QQYHRLPLS | 0.42 0.71 0.69 | 0.61 |
| KSSQSVLNNSRNENSVA | WASTRES | QQYHRLPLS | 0.42 0.82 0.72 | 0.66 |
| KSSQSVLYRSVNTNSVA | WASTRES | QQYHRLPLS | 1.02 1.34 0.77 | 1.04 |
| KSSQSVLYTSRNKNSVA | WASTRES | QQYVRLPLS | 1.14 1.26 1.29 | 1.23 |
| KSSQSVLYKSRNKNSVA | AASTRES | QQYHRTPLS | 1.35 1.28 1.26 | 1.30 |
| KRSQSVLYTSRNKNSVA | WASTRES | QQYYRLPLS | 1.01 1.36 1.60 | 1.32 |
| KSRQSVLYASRNKNSVA | WASTRES | QQYHRLPLS | 1.67 1.70 1.82 | 1.73 |
| KSSQSVEYVSRNKNSVA | WASTRES | QQYHRHPLS | 2.37 2.02 1.69 | 2.03 |
| KSSQSVLYRTRNKNSVA | WASTREI | QQYHRLPLS | 2.16 2.14 2.13 | 2.14 |
| KSSQSVLYFSRNKNSVA | WASTRES | QQYHRLWLS | 2.31 2.23 2.06 | 2.20 |
| TSSQSVLYRSRNKNSVA | WASTRET | QQYHRLPLS | 2.73 2.33 2.32 | 2.46 |
| KSKQSVLYPSRNKNSVA | WASTRET | QQYHRLPLS | 2.77 2.34 3.28 | 2.80 |
| KSSQSVLYRSRNKNSVA | WASTRES | QQYHRLNLS | n.d. 2.89 n.d. | 2.89 |
| KSSQSVLYQSRHKNSVA | WQSTRES | QQYHRLPLS | 2.69 3.14 n.d. | 2.92 |
| KSSQHVLYYARNKNSVA | WASTRES | QQYHRLPLS | 2.69 3.30 3.18 | 3.06 |
| KSSQFVLYPSRNKNSVA | WASTRES | QQYHRLPLS | n.d. n.d. 3.12 | 3.12 |
| KSSQSVLYGSRNKNSVA | WASFRES | QQYHRLFLS | n.d. 3.48 n.d. | 3.48 |
| KSSQHVLYVSRNKKSVA | WASTRES | QQYHRLPLS | n.d. n.d. 3.56 | 3.56 |
| KSPQSVLYHSRNKNSVA | WASTRES | QQYHRTPLS | 4.31 2.95 3.51 | 3.59 |
| KRSQSVLYISRNKNSVA | WASTRES | GQYHRLPLS | n.d. 3.62 n.d. | 3.62 |
| KSSQSVLYFSRNKNSVA | WANTRES | QQYHRNPLS | 4.67 3.10 n.d. | 3.88 |
| KSSQSVQYNSRNKNSVA | WASRRES | QQYHRLPLS | 3.46 4.29 4.53 | 4.09 |
| KSSQSVLYISRNKNSVA | WASTRES | QGYHVLPLS | n.d. 4.26 n.d. | 4.26 |
| KSSQSVLYISRNKNSVA | WASTRES | QWKHRLPLS | 4.26 n.d. n.d. | 4.26 |
| KSSQSVLYYSRNKNSVA | WASTPES | QQYHYLPLS | n.d. 4.45 n.d. | 4.45 |
| KSQQSVLYHSRNKNSVA | WASTRES | QQYHRLPCS | 4.79 4.33 n.d. | 4.56 |
| KDSQSVLYCSRNKNSVA | WASTRES | AQYHRLPLS | 4.91 n.d. n.d. | 4.91 |
| GSSQSVLYRSRNKNSVA | WASNRES | QQYHRLPLS | n.d. n.d. 4.93 | 4.93 |
| KSSQSVLYCSRNKNSVA | WASTRTS | QQNHRLPLS | 5.40 n.d. n.d. | 5.40 |
| KSSQSGLYGSRNKNSVA | WASTRES | QQYHRLPSS | n.d. n.d. n.d. | n.d. |
| KSSQSVLYICRNQNSVA | WASTRES | QQYHRLPLS | n.d. n.d. n.d. | n.d. |
| KSSQSVLYHSRNKNSVA | WASTRES | QQYHRLPKS | n.d. n.d. n.d. | n.d. |
| KSSGSVLYPSRNKNSVA | WASTRES | QQYHRKPLS | n.d. n.d. n.d. | n.d. |
| KSSQSVLYWSRNKNSVA | WASTRES | QWYHELPLS | n.d. n.d. n.d. | n.d. |
| KSSQSVLYHSRNTNSVA | WASTFES | QQYHRLPLS | n.d. n.d. n.d. | n.d. |
| KSSYSVLYISRNKNSVA | WASTRES | QAYHRLPLS | n.d. n.d. n.d. | n.d. |
| KSSQVVLYWSRNKNSVA | WASTRES | QQYHRLPLS | n.d. n.d. n.d. | n.d. |

The closing 6 entries, repeated:

CDR-L1	CDR-L2	CDR-L3	log10 Kd (nM) by replicate	mean log10 Kd (nM)
KSSQSVLYHSRNKNSVA	WASTRES	QQYHRLPKS	n.d. n.d. n.d.	n.d.
KSSGSVLYPSRNKNSVA	WASTRES	QQYHRKPLS	n.d. n.d. n.d.	n.d.
KSSQSVLYWSRNKNSVA	WASTRES	QWYHELPLS	n.d. n.d. n.d.	n.d.
KSSQSVLYHSRNTNSVA	WASTFES	QQYHRLPLS	n.d. n.d. n.d.	n.d.
KSSYSVLYISRNKNSVA	WASTRES	QAYHRLPLS	n.d. n.d. n.d.	n.d.
KSSQVVLYWSRNKNSVA	WASTRES	QQYHRLPLS	n.d. n.d. n.d.	n.d.